The values below are quoted from earlier work in article PMC6708598.

For this data set, the target named is GFP (Aequorea victoria) [GFP: P42212].

By Kd is commonly meant the free concentration of one partner at which half of the binding sites on the other are occupied at equilibrium, for simple one-to-one binding. Take GFP (from UniProt P42212): the Kd is 100 µM.
